Assay results: ChEMBL document CHEMBL5316322, “Discovery and Characterization of the Topical Soft JAK Inhibitor CEE321 for Atopic Dermatitis” (J Med Chem, 2023)

Amino acid sequences for entries named in this document (tags omitted). A change or cut given only in a name is not applied to a line headed by its entry.
UniProt O60674: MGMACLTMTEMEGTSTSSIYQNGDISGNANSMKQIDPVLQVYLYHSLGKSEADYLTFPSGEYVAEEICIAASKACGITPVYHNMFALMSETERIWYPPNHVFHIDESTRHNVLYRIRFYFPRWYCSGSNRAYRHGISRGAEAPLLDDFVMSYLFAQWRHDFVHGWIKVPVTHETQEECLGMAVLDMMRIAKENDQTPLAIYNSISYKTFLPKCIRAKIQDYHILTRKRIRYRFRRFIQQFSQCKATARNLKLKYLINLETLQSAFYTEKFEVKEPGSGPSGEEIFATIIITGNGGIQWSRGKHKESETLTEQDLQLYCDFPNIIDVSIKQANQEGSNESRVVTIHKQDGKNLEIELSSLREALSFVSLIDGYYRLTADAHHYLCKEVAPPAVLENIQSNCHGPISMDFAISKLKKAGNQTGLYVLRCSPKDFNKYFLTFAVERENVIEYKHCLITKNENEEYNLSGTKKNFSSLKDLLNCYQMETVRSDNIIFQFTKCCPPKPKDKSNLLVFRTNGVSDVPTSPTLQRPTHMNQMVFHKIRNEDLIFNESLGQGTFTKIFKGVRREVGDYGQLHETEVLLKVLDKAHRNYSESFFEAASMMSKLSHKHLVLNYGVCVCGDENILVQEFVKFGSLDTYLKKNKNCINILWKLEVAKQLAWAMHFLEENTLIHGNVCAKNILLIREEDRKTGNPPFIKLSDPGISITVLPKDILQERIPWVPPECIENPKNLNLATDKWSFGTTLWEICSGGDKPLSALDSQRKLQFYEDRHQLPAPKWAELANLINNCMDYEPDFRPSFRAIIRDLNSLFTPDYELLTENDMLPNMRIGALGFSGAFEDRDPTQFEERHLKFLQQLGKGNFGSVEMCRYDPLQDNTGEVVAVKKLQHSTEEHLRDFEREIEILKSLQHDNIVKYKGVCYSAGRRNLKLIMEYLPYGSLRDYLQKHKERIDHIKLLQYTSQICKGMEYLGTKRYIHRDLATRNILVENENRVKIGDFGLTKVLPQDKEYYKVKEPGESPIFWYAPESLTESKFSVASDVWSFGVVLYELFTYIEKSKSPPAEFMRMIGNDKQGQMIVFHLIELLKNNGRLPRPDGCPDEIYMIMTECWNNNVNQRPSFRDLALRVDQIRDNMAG

Molecular target: Tyrosine-protein kinase JAK2 (Homo sapiens, UniProt O60674)

- IC50: 2.9 nM
SMILES: CCS(=O)(=O)N1CC(CC#N)(n2cc(-c3ncnc4[nH]ccc34)cn2)C1 [BARICITINIB]
